Screening results as filed in PubChem.
Compounds with a hit are over-represented: about 13% of the library has one in this group of screens.
Sfp inh: inhibitors of Bacillus subtilis Sfp phosphopantetheinyl transferase; Potency, µM, actives largely listed as inhibitors; AID 1490; hit rate 3.5% among 310,000; Biochemical Sfp PPTase activity, qHTS; Q9F4F7;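 further: the enzyme is Sfp with the accession as filed and its product quenches rhodamine fluorescence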
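Reaction rates are the 30-min fluorescence difference (ex 525, em 598 nm) in wells containing 15 nM Sfp, 5 uM rhodamine-CoA and 12.5 uM BHQ-2-YbbR at pH 7.6 with 10 mM MgCl2.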
LMNA splice mod: changes lamin A minigene splicing in HeLa cells. HeLa LMNA splicing GFP/RFP minigene ratio, 48 h. Potency, µM (titrated, usually from 46.1 µM), actives largely listed as inhibitors. hit rate 0.01% among 200,000. AID 1487; active means well fitted inhibition curve with a large enough effect in the signal ratio, with a control signal flat, not every such curve was filed as active; inconclusive means small, poorly fitted or top-dose-only effect, or effect the other way, or a change in a side signal; the % refers to the signal ratio
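S3 HeLa cells stably expressing lamin A-EGFP splicing minigene plus DsRed2, 600 cells/well, 48 h compound exposure at 37C. Laser-scanning cytometry; analysed as GFP (500-530 nm)/RFP (575-640 nm) total intensity ratio; 0.5% DMSO vehicle.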
miR-21 FLuc: miR-21 reporter, rising signal. HeLa miR-21 FLuc reporter, luciferase, 48 h. Potency, µM (highest dose often 38.3 µM). 340,000 tested, under 10 active. AID 2288; active = well fitted rising curve with a large enough effect; inconclusive = small, poorly fitted or top-dose-only effect; inactive = no such curve, though single readings can be large or run the other way;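 further: miR-21 action dims this reporter so a rising signal means less miR-21 action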
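Using DMEM plus 10% FBS, HeLa miR-21-FLuc cells are incubated with test compounds (final up to about 40uM) for 48 hours; firefly luciferase signal is then imaged following reagent-mediated lysis.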
G9a inh: inhibitors of human histone lysine methyltransferase G9a | Q96KQ7 | hit rate 8.8% among 350,000 | Potency, µM (titrated, usually from 102 µM), most hits filed as inhibitors | G9a H3K9 monomethylation, AlphaScreen, 2 h | AID 504332; further: nearly all actives have a fitted effect of over 75% in size
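AlphaScreen read-out: biotin-H3K9 peptide (500 nM) methylation by 20 nM enzyme with 20 uM SAM, 2 h at room temperature after 15 min compound preincubation; anti-monomethyl H3K9 antibody plus donor/acceptor beads, 10 min dark.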
ALDH1A1 block: blocks purified human ALDH1A1 activity. Purified ALDH1A1, NADH fluorescence, propionaldehyde substrate. Potency, µM (highest dose often 75.3 µM), hits mostly inhibitors. AID 1030. hit rate 7.3% among 220,000. P00352; active means well fitted inhibition curve with a large enough effect, not every such curve was filed as active; inconclusive means small, poorly fitted or top-dose-only effect, or another doubt; inactive means no such curve, though single readings can be large or run the other way
KDM4E inh: blocks human JMJD2E demethylase activity | JMJD2E catalytic domain, FDH-coupled NADH fluorescence (FDH is formaldehyde dehydrogenase) | Potency, µM (titrated, usually from 57.1 µM), usual class: inhibitors | hit rate 1.6% among 230,000; active means well fitted inhibition curve with a large enough effect, not every such curve was filed as active; inconclusive means small, poorly fitted or top-dose-only effect, or another doubt; inactive means no such curve, though single readings can be large or run the other way; further: nearly all actives have a fitted effect of over 50% in size
Large screens that a line does not name were inactive. Unless noted, the call rests on the fitted dose curve; in most records, active means well fitted curve in the direction sought with a large enough effect; inconclusive means small, poorly fitted or top-dose-only effect, or another doubt; inactive means no such curve, though single readings can be large; an effect the other way counts as inactive or inconclusive.

O=C(c1cccc(Cl)c1)N1CCN(c2ncnc3c2cnn3-c2ccccc2)CC1	ALDH1A1 block 7.9µM, KDM4E inh inconclusive (no result: G9a inh)
Cc1nn(-c2ccccc2)c(Cl)c1C(=O)N1CCN(c2ncnc3c2cnn3-c2ccccc2)CC1	LMNA splice mod inconclusive, ALDH1A1 block 14µM, KDM4E inh inconclusive
Brc1ccc(Nc2c3c(nc4nncn24)CCC3)cc1	none (no result: Sfp inh, LMNA splice mod, ALDH1A1 block, KDM4E inh)
OCc1cc2c(cn1)[nH]c1ccccc12	ALDH1A1 block inconclusive (no result: LMNA splice mod, miR-21 FLuc, KDM4E inh)
CCOC(=O)c1ccc(N2CCN(c3ccccc3F)CC2)c(NC(=O)Nc2cccc(OC)c2)c1	miR-21 FLuc inconclusive, ALDH1A1 block inconclusive, KDM4E inh inconclusive
COC(=O)c1ccc(N2CCOCC2)c(NC(=O)Nc2cccc(OC)c2)c1	Sfp inh inconclusive, G9a inh 45µM, ALDH1A1 block 25µM
COc1ccc(N2CCCC2)c(NC(=O)COc2ccccc2Cl)c1	G9a inh 35µM (no result: LMNA splice mod, ALDH1A1 block, KDM4E inh)
COC(=O)c1ccccc1NC(=S)NC(=O)COc1ccccc1Cl	G9a inh inconclusive
COC(=O)c1ccc(N2CCN(C)CC2)c(NC(=O)COc2ccccc2Cl)c1	none (no result: LMNA splice mod, ALDH1A1 block, KDM4E inh)
COC(=O)c1ccc(N2CCN(C(C)=O)CC2)c(NC(=O)COc2ccccc2C)c1	ALDH1A1 block 7.9µM
O=C(COc1ccccc1Cl)NC(=S)Nc1ccccc1N1CCCC1	G9a inh 40µM (no result: LMNA splice mod, ALDH1A1 block, KDM4E inh)
COc1ccc(OCC(=O)Nc2cc(OC)ccc2N2CCCCC2)cc1	none (no result: LMNA splice mod, ALDH1A1 block, KDM4E inh)
CC1CCCN(Cc2c(O)ccc3c(=O)c(-c4ccc(Cl)cc4)c(C(F)(F)F)oc23)C1 (stereo not drawn)	none (no result: Sfp inh, LMNA splice mod, ALDH1A1 block, KDM4E inh)
O=C(COc1ccc(Br)cc1Cl)NC(=S)Nc1ccccn1	Sfp inh 56µM, G9a inh 79µM (no result: LMNA splice mod, ALDH1A1 block, KDM4E inh)
O=C1CS/C(=N/N=C/c2ccccc2)N1Cc1ccco1	Sfp inh inconclusive, ALDH1A1 block 11µM (no result: LMNA splice mod, G9a inh)
O=C1CSC(=Nc2ccc(Cl)cc2)N1Cc1ccco1	Sfp inh inconclusive (no result: LMNA splice mod, ALDH1A1 block)
CCC1S/C(=N/N=C/c2ccco2)N(Cc2ccc(F)cc2)C1=O (stereo not drawn)	G9a inh inconclusive (no result: LMNA splice mod, ALDH1A1 block)
CC1S/C(=N/N=C/c2ccco2)N(Cc2ccccc2)C1=O (stereo not drawn)	Sfp inh 32µM, LMNA splice mod inconclusive, ALDH1A1 block 10µM, KDM4E inh inconclusive (no result: G9a inh)
Cc1ccccc1CN1C(=O)CS/C1=N/N=C/c1ccco1	Sfp inh 45µM, G9a inh 40µM (no result: LMNA splice mod, ALDH1A1 block)
COc1ccccc1N=C1SCC(=O)N1Cc1ccco1	none (no result: LMNA splice mod, ALDH1A1 block)
COc1ccc(OC)c(/C=N/N=C2\SCC(=O)N2Cc2ccco2)c1	Sfp inh 56µM, ALDH1A1 block 5µM, KDM4E inh inconclusive
CCC1S/C(=N/N=C/c2ccco2)N(Cc2ccccc2C)C1=O (stereo not drawn)	none (no result: LMNA splice mod, G9a inh, ALDH1A1 block)
CCCOc1ccc(OC(=O)c2ccc(-c3ccc(CCC)cn3)cc2)cc1	none (no result: Sfp inh, LMNA splice mod, ALDH1A1 block, KDM4E inh)
NCCC[C@@H](CC(=O)N[C@@H]1CCNC[C@H]1C(=O)N[C@H](CC(=O)N[C@@H](CCC(=O)O)CC(=O)O)Cc1c[nH]c2ccccc12)NC(=O)C[C@H](CO)NC(=O)[C@@H]1CNCC[C@H]1N	ALDH1A1 block inconclusive (no result: LMNA splice mod, miR-21 FLuc, G9a inh)
COc1ccc(CCC(=O)N(C)CC(=O)Nc2ccc(Cl)c(C(F)(F)F)c2)cc1	none (no result: LMNA splice mod, G9a inh, ALDH1A1 block, KDM4E inh)
CC(C)OCCCNc1ncc2c(n1)CC(c1cccs1)CC2=O (stereo not drawn)	G9a inh inconclusive, KDM4E inh inconclusive (no result: LMNA splice mod)
CC(C)OCCCNc1ncc2c(n1)CC(c1ccc(N(C)C)cc1)CC2=O (stereo not drawn)	G9a inh 35µM, ALDH1A1 block 8.9µM
Cc1ccc(NC(=O)c2ccc3nc(N4CCOCC4)sc3c2)c(Cl)c1	Sfp inh 50µM (no result: LMNA splice mod, G9a inh, ALDH1A1 block, KDM4E inh)
O=S(=O)(Nc1ccc2nc(N3CCOCC3)sc2c1)c1ccc(Cl)cc1	G9a inh 10µM (no result: Sfp inh, LMNA splice mod, miR-21 FLuc, ALDH1A1 block, KDM4E inh)
CCc1ccccc1NC(=O)c1ccc2nc(N3CCOCC3)sc2c1	none (no result: LMNA splice mod, ALDH1A1 block, KDM4E inh)
O=S(=O)(c1ccc(Cl)cc1)N1CCCN(c2nc3ccc(Cl)cc3s2)CC1	none (no result: G9a inh)
Cc1ccc(NC(=O)N[C@H](C(=O)O)C(C)C)c(C)c1	none (no result: LMNA splice mod, ALDH1A1 block)
S=C(Nc1ccc(-c2nc3ccccc3[nH]2)cc1)Nc1cccnc1	G9a inh 45µM (no result: LMNA splice mod, ALDH1A1 block, KDM4E inh)
c1cncc(-c2nc3ccccc3[nH]2)c1	KDM4E inh inconclusive
S=C(NCCN1CCOCC1)Nc1ccc(Cl)cc1	none
